Earlier results as cited in patent US12043625B2, “Pyridine derivatives with c-linked cyclic substituents as cGAS inhibitors” (BOEHRINGER INGELHEIM INTERNATIONAL GMBH, priority 2021, dated 2024).

Test system: cGAS
Conditions: cited from earlier work

Q: Which “cellular activity as a cGAS inhibitor” value does the source give for `O=C(N[C@H]1CCCC[C@H]1C(=O)O)c1cnn2c(O)cc(-c3ccccc3)nc12` here?
A: no acceptable cellular activity
